Laboratory results taken from ChEMBL document CHEMBL1154637 (J Med Chem, 2009).

What was measured:
Homo sapiens [1] = species on record: Homo sapiens; assay: Protein binding in 100% human plasma; settings: 100% plasma, read-out: PPB (converted)
Homo sapiens [2] = species on record: Homo sapiens; assay: Protein binding in 10% human plasma; settings: 10% plasma, read-out: PPB (converted)

fraction unbound (Homo sapiens [1]): 0.08
fraction unbound (Homo sapiens [2]): 0.32
Structure (SMILES): CN(C)Cc1nc2c(sc3ccc(-c4ccc(O)cc4)cc32)c(=O)[nH]1
